Earlier results on two compounds are cited in patent publication US20160034667A1, “TAILORED DRUG THERAPIES AND METHODS AND SYSTEMS FOR DEVELOPING SAME” (COMPANION DX REFERENCE LAB, LLC, priority 2014, published 2016).

The structures appear in SMILES notation.

`CCN(CC)CCNC(=O)c1ccc(N)cc1`: under “in vivo”, the “Therapeutic Range” value is “PA 4-10 mg/L,”. With `C=C[C@H]1C[N@@]2CC[C@H]1C[C@@H]2[C@@H](O)c1ccnc2ccc(OC)cc12` [Quinidine], the “Therapeutic Range, trough” value (trough) was “trough 2.3-5.0 mg/L”.
